Data reported in patent US8017630B2 (priority 2004, dated 2011).

Chains of the proteins cited; added tags and fusions are not shown.
UniProt P41146, whole entry: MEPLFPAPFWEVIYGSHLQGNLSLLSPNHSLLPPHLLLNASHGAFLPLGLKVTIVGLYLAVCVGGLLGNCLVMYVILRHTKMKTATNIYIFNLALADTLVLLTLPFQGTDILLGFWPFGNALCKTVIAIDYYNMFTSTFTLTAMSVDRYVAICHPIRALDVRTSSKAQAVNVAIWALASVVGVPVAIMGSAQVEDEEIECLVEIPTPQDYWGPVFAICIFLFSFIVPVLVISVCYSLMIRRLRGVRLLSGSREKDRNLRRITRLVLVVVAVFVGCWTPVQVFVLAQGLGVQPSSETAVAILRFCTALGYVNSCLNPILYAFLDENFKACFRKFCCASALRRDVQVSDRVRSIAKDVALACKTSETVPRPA
UniProt P35372, whole entry: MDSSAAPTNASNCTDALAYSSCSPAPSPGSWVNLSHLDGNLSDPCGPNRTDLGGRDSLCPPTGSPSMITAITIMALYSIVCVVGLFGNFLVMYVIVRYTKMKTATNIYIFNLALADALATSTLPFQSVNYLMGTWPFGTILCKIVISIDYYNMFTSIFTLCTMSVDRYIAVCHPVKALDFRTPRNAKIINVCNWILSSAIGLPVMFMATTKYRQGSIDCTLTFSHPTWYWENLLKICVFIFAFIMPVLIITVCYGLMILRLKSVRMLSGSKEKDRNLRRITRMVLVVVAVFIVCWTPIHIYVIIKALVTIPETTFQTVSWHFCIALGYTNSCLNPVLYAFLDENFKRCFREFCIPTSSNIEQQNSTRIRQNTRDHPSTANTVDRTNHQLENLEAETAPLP

Tests used:
ORL1 receptor = ORL1 receptor (Homo sapiens, UniProt P41146); assay: ORL1 receptor binding assay with 3H-nociceptin/orphanin FQ; settings: % inhibition at c=1 μM; membranes from recombinant CHO-ORL1 cells
human μ-opiate receptor = human μ-opiate receptor (Homo sapiens, UniProt P35372); assay: μ-opiate receptor binding assay with [3H]-naloxone; settings: for ORμNal % 1 μm: % inhibition of specific [3H]-naloxone binding at 1 μmol/l; for Ki: read-out: ORμNal Ki, Ki from IC50 by Cheng-Prusoff, [3H]-naloxone, CHO-K1 membranes
mice = assay: Tail flick test in mice (analgesia); settings: 10 mg/kg intravenous; % of maximum possible antinociceptive effect

CN(C)C1(c2ccccc2)CCC(CC(=O)NCCCCc2ccccc2)CC1.Cl (stereo not drawn)
ORL1% 1 μM (ORL1 receptor): 95.00%
ORμNal % 1 μm (human μ-opiate receptor): 101%

CN(C)C1(c2ccccc2)CCC(CC(=O)NCCc2c[nH]c3ccccc23)CC1.Cl (stereo not drawn)
ORL1% 1 μM (ORL1 receptor): 98.00%
TFMiv % (10 mg/kg) (mice): 90 (10 mg/kg) %
ORμNal % 1 μm (human μ-opiate receptor): 91.5%

CC(Cc1c[nH]c2ccccc12)NC(=O)CC1CCC(c2ccccc2)(N(C)C)CC1 (stereo not drawn)
Ki (human μ-opiate receptor): 900 pM

CN(C)C1(c2ccccc2)CCC(CC(=O)NCCc2c[nH]c3ccccc23)CC1 (stereo not drawn)
Ki (human μ-opiate receptor): 300 pM

CC(Cc1c[nH]c2ccccc12)NC(=O)CC1CCC(c2ccccc2)(N(C)C)CC1.Cl (stereo not drawn)
ORL1% 1 μM (ORL1 receptor): 98.00%
ORμNal % 1 μm (human μ-opiate receptor): 103%
